Data reported in patent publication US20100136573A1, “DIAGNOSING NEURODEGENERATIVE DISEASES” (priority 2007, published 2010).

System: TDP-43
Assay: Proteolytic processing of TDP-43 and caspase-3, Western blot of HeLa and H4 cells
Format: cell-based
Settings: 0.2 μM, 3 hours

SMILES: CN[C@@H]1C[C@H]2O[C@@](C)([C@@H]1OC)n1c3ccccc3c3c4c(c5c6ccccc6n2c5c31)C(=O)NC4 [staurosporine]
- caspase-3 activity: concomitant increase
- cleavage of TDP-43: increased cleavage
